Earlier results as cited in patent US12162877B2, “Human dihydroorotate dehydrogenase (hDHODH) inhibitors and their use in targeting oncological diseases sensitive to pyrimidine starvation” (DRUG DISCOVERY AND CLINIC S.R.L., priority 2018, dated 2024).
pIC50: −log10 of the molar value.

The chains behind the UniProt entries cited, without tags or fusion partners. Residues count along the entry.
UniProt Q02127, 31-395 limits assumed: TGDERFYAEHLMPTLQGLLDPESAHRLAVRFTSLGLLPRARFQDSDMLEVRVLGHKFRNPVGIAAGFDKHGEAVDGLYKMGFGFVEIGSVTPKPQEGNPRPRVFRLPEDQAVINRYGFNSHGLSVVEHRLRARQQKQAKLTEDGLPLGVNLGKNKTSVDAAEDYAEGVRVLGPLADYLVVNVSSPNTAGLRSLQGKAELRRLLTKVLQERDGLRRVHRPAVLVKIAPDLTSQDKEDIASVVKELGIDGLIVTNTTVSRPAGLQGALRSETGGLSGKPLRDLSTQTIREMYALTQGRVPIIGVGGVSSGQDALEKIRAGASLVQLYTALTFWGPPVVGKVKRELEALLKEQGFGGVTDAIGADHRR

Biological target: recombinant hDHODH (Homo sapiens (Human), UniProt Q02127)
Settings: read-out: hDHODH IC50; earlier series of the inventors (refs 17, 23); cited from earlier work

## O=C(Nc1c(F)c(F)c(-c2ccccc2)c(F)c1F)c1nsnc1O
  pIC50: 7.80
